Measured values reported in US7662360B2, “Conjugates of N-hydroxypropymethacrylamide-methacrylate copolymer with nuclide activation agent and/or anti-cancer compounds” (Psimei Pharmaceuticals PLC, priority 2002, dated 2010).

System: EMT-6 carcinoma
Assay: Boron biodistribution in EMT-6 tumour-bearing mice (DCP-AES)
Settings: for Blood boron concentration / Brain boron concentration / Liver boron concentration / Tumour boron concentration: single i.v. bolus approx. 5 mg boron/kg
Experimental: Female BALB/c mice (20-25 g) bearing the EMT-6 carcinoma were used. The mice-were housed four to a cage in temperature-controlled rooms and had free access to food and water. The mice were maintained in a controlled light/dark cycle, with lights on between 0700 and 1900 h In all studies, anaesthesia was maintained with ketamine (120 mg/kg) and xylazine (20 mg/kk). Animals were monitored on a daily basis for general health. Animals were euthanised, as required, under anaesthesia.
The compounds were injected in a saline solution containing 50 mg/ml (0.5 mg boron/ml). The administered volume was 0.01 mL/gbw by single bolus injection delivering a dose of approximately 5 mg boron/kg.
Concentrations of boron in tissue samples were determined using direct current plasma atomic emission spectroscopy (DCP-AES), see Coderre, J. A., Button, T. M., Micca, P. L. Fisher, C., Nawrocky, M. M., and Liu, H. B. Int. J. Radiat Oncol. Biol. Phys. (1994) 30, 643-652.
Visual observation of animal appearance, levels of activity and general behaviour indicated no evidence of toxicity (see Miura, M., Micca, P. L., Fisher, C. D., Gordon, C. R., Heinrichs, J. C. et al. Brit. J. Radiol. (1998) 847, 773-781). Tumour, blood, brain, and liver were sampled at 6, 24, 48, and 72 hours after injection for boron analyses. Four mice were used per time sampling point (16 mice in total). The boron biodistribution data are detailed in Table 2 below.

Substance: poly(HPMA-co-MA-GG-F BSMel) [PP403]
- Blood boron concentration (6 h after injection): 13.8 ± 0.5 µg/g
- Brain boron concentration (6 h after injection): 0.3 ± 0.1 µg/g
- Liver boron concentration (6 h after injection): 10.4 ± 0.5 µg/g
- Tumour boron concentration (6 h after injection): 3.5 ± 0.2 µg/g
- Blood boron concentration (24 h after injection): 5.7 ± 0.1 µg/g
- Brain boron concentration (24 h after injection): 0.2 ± 0.1 µg/g
- Liver boron concentration (24 h after injection): 7.4 ± 0.4 µg/g
- Tumour boron concentration (24 h after injection): 3.1 ± 0.3 µg/g
- Blood boron concentration (48 h after injection): 4.2 ± 0.5 µg/g
- Liver boron concentration (48 h after injection): 7.7 ± 0.4 µg/g
- Tumour boron concentration (48 h after injection): 2.9 ± 0.1 µg/g
- Blood boron concentration (72 h after injection): 2.1 ± 0.2 µg/g
- Brain boron concentration (72 h after injection): 0.1 ± 0.1 µg/g
- Liver boron concentration (72 h after injection): 6.9 ± 0.2 µg/g
- Tumour boron concentration (72 h after injection): 2.3 ± 0.2 µg/g
- tumour boron concentration relative to that from PP404 (approx. 5 mg boron/kg i.v.): about three times greater
